Assay results from a protein production outcome set (Wang et al. 2014).

Assay: label from the status in PepcDB records

Q: For “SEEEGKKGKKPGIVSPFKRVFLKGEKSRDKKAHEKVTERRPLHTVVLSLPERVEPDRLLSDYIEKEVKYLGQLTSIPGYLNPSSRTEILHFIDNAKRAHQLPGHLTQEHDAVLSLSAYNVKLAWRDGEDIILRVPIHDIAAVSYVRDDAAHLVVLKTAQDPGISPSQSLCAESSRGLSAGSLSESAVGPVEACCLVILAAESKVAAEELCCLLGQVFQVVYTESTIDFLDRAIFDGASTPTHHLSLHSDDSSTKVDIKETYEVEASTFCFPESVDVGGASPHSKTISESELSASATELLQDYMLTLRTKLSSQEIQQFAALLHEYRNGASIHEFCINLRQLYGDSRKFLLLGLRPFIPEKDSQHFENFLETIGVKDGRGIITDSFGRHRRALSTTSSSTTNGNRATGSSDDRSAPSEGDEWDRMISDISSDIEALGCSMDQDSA”, which protein production is on record?
A: not failed
